One assay has as its target HLA-A0201 (Homo sapiens, UniProt P04439, D140Y/D185E/D98H/E176V/E277Q/G131W/G231S/I119V/I121R/I166T/I218V/L300P/L318F/N151K/N90K/P208A/P217A/Q86G/Q94H/R138H/R169H/T345S). The assay can be described thus: cell-based.
The target in another assay is HLA-A3303 (Homo sapiens, UniProt P04439, A270S/D185E/E176V/E277Q/E87N/F33T/G231S/H175R/I121M/I218V/I322F/K168Q/L300P/L318F/M331R/P217A/Q86R/Q94H/R138Q/T323A/T345S/T97I/V358M). The assay can be described thus: cell-based.
The next assay addresses HLA-A0206 (Homo sapiens, UniProt P04439, D140Y/D185E/D98H/E176V/E277Q/F33Y/G131W/G231S/I119V/I121R/I166T/I218V/L300P/L318F/N151K/N90K/P208A/P217A/Q86G/Q94H/R138H/R169H/T345S). The experiment in a line: cell-based.
In the next assay the target is HLA-A1102 (Homo sapiens, UniProt P04439, A114D/D185E/E176A/E43K/F33Y/L180Q/S129P/T187R). The experiment in a line: Peptide competitive binding assay, transfected HMy2.CIR cells, reference ATFQFK(FITC)VER.
Another assay concerns the target HLA-A1101 (Homo sapiens, UniProt P04439, A114D/D185E/E176A/F33Y/L180Q/S129P/T187R). The assay can be described thus: cell-based.
Another assay has as its target HLA-A0203 (Homo sapiens, UniProt P04439, A173T/D140Y/D185E/D98H/E277Q/G131W/G231S/I119V/I121R/I166T/I218V/L180W/L300P/L318F/N151K/N90K/P208A/P217A/Q86G/Q94H/R138H/R169H/T345S). The assay can be described thus: cell-based.
In another assay the target is HLA-A2402 (Homo sapiens, UniProt P04439, D101N/D140Y/D185E/E176V/E190D/F33S/G103R/G107R/I119L/I121M/I306V/K335N/L105A/L180Q/L300P/N151K/N90K/Q86E/Q94H/R106L/R138H/R89G/T104I/T345S/V100E/W191G/Y123F). The experiment in a line: cell-based.
The target of another assay is HLA-A0207 (Homo sapiens, UniProt P04439, D140Y/D185E/D98H/E176V/E277Q/G131W/G231S/I119V/I121R/I166T/I218V/L300P/L318F/N151K/N90K/P208A/P217A/Q86G/Q94H/R138H/R169H/T345S/Y123C). The assay can be described thus: cell-based.
In the next assay the target is HLA-A3101 (Homo sapiens, UniProt P04439, A270S/D185E/E176V/E277Q/F33T/G231S/G80R/H175R/I121M/I218V/I322F/K168Q/L300P/L318F/M331R/P217A/Q94H/R138Q/T323A/T345S/T97I/V358M). The experiment in a line: Peptide competitive binding assay, transfected HMy2.CIR cells, reference ATFQFK(FITC)VER.
The next assay has as its target HLA-A0301 (Homo sapiens, UniProt P04439). The description is as above.
The target in a further assay is HLA-A0101 (Homo sapiens, UniProt P04439, A114D/A174V/A182V/D101N/D185E/E176A/E190D/L180R/Q94H/R68K/S129P/T187R/V100A/V91M/W191G). The experiment in a line: Peptide competitive binding assay, transfected HMy2.CIR cells, reference YLEPAK(FITC)AKY.

Some results are limits rather than exact numbers.

The IC50 is the midpoint of a concentration-inhibition curve. For the molecule `CC[C@H](C)[C@H](NC(=O)[C@H](Cc1c[nH]c2ccccc12)NC(=O)[C@@H](NC(=O)CNC(=O)[C@H](Cc1ccccc1)NC(=O)[C@H](CO)NC(=O)[C@@H](NC(=O)[C@@H](N)CC(C)C)C(C)C)C(C)C)C(=O)N[C@@H](CCCNC(=N)N)C(=O)O` [Epitope P4], the IC50 on HLA-A0201, against HLA-A3303, against HLA-A0206 and on HLA-A1102 was above 15 µM in each case.

Consider `CC[C@H](C)[C@H](NC(=O)[C@H](CO)NC(=O)[C@@H]1CCCN1C(=O)[C@H](Cc1ccccc1)NC(=O)[C@H](Cc1ccccc1)NC(=O)[C@H](CC(=O)O)NC(=O)[C@H](CO)NC(=O)[C@@H]1CCCN1C(=O)[C@H](CC(C)C)NC(=O)[C@@H](N)Cc1ccccc1)C(=O)O` [Epitope P31], for which the IC50 was below 5 µM at HLA-A0201; above 15 µM against HLA-A1101; below 5 µM on HLA-A0203; below 5 µM against HLA-A2402; above 15 µM against HLA-A0207.

For the molecule `CC[C@H](C)[C@H](NC(=O)[C@H](CO)NC(=O)[C@H](CO)NC(=O)[C@@H](NC(=O)[C@@H]1CCCN1C(=O)[C@@H](N)CO)[C@@H](C)CC)C(=O)N[C@@H](Cc1ccccc1)C(=O)N[C@@H](CO)C(=O)N[C@@H](CCCNC(=N)N)C(=O)O` [Epitope P38], the IC50 at HLA-A0201, on HLA-A1101 and on HLA-A3101 was above 15 µM throughout.

At HLA-A2402, `CSCC[C@H](NC(=O)CNC(=O)[C@H](CCC(N)=O)NC(=O)[C@H](Cc1ccc(O)cc1)NC(=O)[C@H](CC(=O)O)NC(=O)[C@H](CC(C)C)NC(=O)[C@@H](N)CC(C)C)C(=O)N[C@@H](CC(C)C)C(=O)N1CCC[C@H]1C(=O)N[C@H](C(=O)O)C(C)C` [Epitope P95] returned an IC50 above 15 µM.

Take `CSCC[C@H](NC(=O)[C@@H](N)CCSC)C(=O)N[C@@H](Cc1c[nH]c2ccccc12)C(=O)N[C@@H](Cc1ccc(O)cc1)C(=O)N[C@@H](Cc1c[nH]c2ccccc12)C(=O)NCC(=O)N1CCC[C@H]1C(=O)N[C@@H](CO)C(=O)N[C@@H](CC(C)C)C(=O)N[C@@H](Cc1ccc(O)cc1)C(=O)O` [Epitope P108]: the IC50 against HLA-A1101, on HLA-A0301, on HLA-A0101, on HLA-A2402, on HLA-A1102 and on HLA-A0207 was above 15 µM throughout.

(Values after PMC9021956 (2022).)
